Article PMC4641156, “Evaluation of a Novel Tc-99m Labelled Vitamin B12 Derivative for Targeting Escherichia coli and Staphylococcus aureus In Vitro and in an Experimental Foreign-Body Infection Model” (Molecular Imaging and Biology, 2015)

Experiments:
[1] = Biodistribution after i.v. injection in tissue cage mouse model (organs, tissues, cages overall)
Method: (§1) C57Bl/6 mice from in-house breeding or purchased from Charles River Laboratories GmbH (Sulzfeld, Germany) were housed in the Animal Facility of the Department of Biomedicine, University Hospital, Basel, Switzerland. Experiments were performed in accordance to the regulations of Swiss veterinary law. The Institutional Animal Care and Use Committee approved the study protocol. Drinking water and standard laboratory food pellets (CR) were provided ad libitum. To reduce interference of high vitamin B12 level in mice, animals randomized for Cbl biodistribution studies were fed with a vitamin B12-reduced diet (Provimi Kliba AG, Kaiseraugst, Switzerland) beginning at the age of 10 weeks. At the age of 12 weeks, one sterile polytetrafluoroethylene (Teflon) tube (32 × 10 mm), perforated by 130 regularly spaced holes of 1 mm diameter, was aseptically implanted into the back of each mouse, as previously described. Each cage was weighted and numbered before implantation. Two weeks after surgery, clips were removed from healed wounds, and sterility of the cage was confirmed by culture of aspirated cage fluid. On the following day, 5 × 10^5 CFU of E. coli or 5 × 10^6 CFU of S. aureus, resuspended in 200 μl of 0.9 % saline, were injected into cages. Sterile 0.9 % saline was injected in cages in animals used as negative controls.
The two different experimental set-up of biodistribution were adapted to the known radiopharmaceutical binding/non-binding to plasma protein, persistence in organs and tissues and half-life of the labelling radioisotope.
(§2) Accumulation of radiopharmaceuticals in cage fluids was measured by resuspending 100 μl of aspirated fluid in 1 ml PBS and counted in a gamma counter. The percentage of injected dose (% IDTCF/ml) was calculated as measured CPM normalized per 1 ml cage fluid and divided by the CPM0 (injected dose). For determination of radiopharmaceutical biodistribution, mice were sacrificed with an intraperitoneal injection of 50–80 μl saline solution of pentothal (100 mg/ml). Blood was collected by cardiac puncture, and mice were perfused with 0.9 % saline for around 5 min. Following, tissues were dissected, weighted and collected into test tubes for γ-counter (blood, heart, liver, spleen, stomach, kidneys, lungs, intestine, muscle, bone and cage). The percentage of injected dose (% IDtissue/g) was calculated as CPM associated to each organ divided by its weight in grams and by the CPM0.

[2] = tested on: S. aureus-infected cages; assay: Distribution into S. aureus-infected tissue cages and cage fluids; conditions: for Cage—S. aureus, mean % ID/g tissue ± SD: explanted S. aureus-infected cage
Method: (§3) For in vivo studies, overnight cultures were prepared in 5 ml tryptic soy broth (TSB), incubated at 37 °C for 18–20 h. Bacterial suspensions were then washed three times, resuspended in 5 ml of sterile 0.9 % saline and diluted.
as §1, §2

[3] = tested on: E. coli-infected cages; assay: Distribution into E. coli-infected tissue cages and cage fluids; conditions: for Cage—E. coli, mean % ID/g tissue ± SD: explanted E. coli-infected cage
Method: as §3, §1, §2

[4] = Distribution into sterile (non-infected) tissue cages and cage fluids; conditions: for Cage—sterile, mean % ID/g tissue ± SD: explanted sterile cage
Method: as §1, §2

[^99mTc]PAMA(4)-cyanocobalamin [[^99mTc]PAMA(4)-Cbl]
Blood, mean % ID/g tissue ± SD ([1]; 30 min after i.v. injection): 1.79 ± 0.05 % ID/g tissue | Blood, mean % ID/g tissue ± SD ([1]; 4 h after i.v. injection): 0.15 ± 0.02 % ID/g tissue | Blood, mean % ID/g tissue ± SD ([1]; 24 h after i.v. injection): 0.02 ± 0.10 % ID/g tissue | Bone, mean % ID/g tissue ± SD ([1]; 30 min after i.v. injection): 0.74 ± 0.05 % ID/g tissue | Bone, mean % ID/g tissue ± SD ([1]; 4 h after i.v. injection): 0.22 ± 0.01 % ID/g tissue | Bone, mean % ID/g tissue ± SD ([1]; 24 h after i.v. injection): 0.08 ± 0.01 % ID/g tissue | Heart, mean % ID/g tissue ± SD ([1]; 30 min after i.v. injection): 0.90 ± 0.07 % ID/g tissue | Heart, mean % ID/g tissue ± SD ([1]; 4 h after i.v. injection): 0.33 ± 0.07 % ID/g tissue | Heart, mean % ID/g tissue ± SD ([1]; 24 h after i.v. injection): 0.11 ± 0.01 % ID/g tissue | Intestine, mean % ID/g tissue ± SD ([1]; 30 min after i.v. injection): 1.81 ± 0.14 % ID/g tissue | Intestine, mean % ID/g tissue ± SD ([1]; 4 h after i.v. injection): 1.52 ± 0.51 % ID/g tissue | Intestine, mean % ID/g tissue ± SD ([1]; 24 h after i.v. injection): 0.59 ± 0.05 % ID/g tissue | Kidneys, mean % ID/g tissue ± SD ([1]; 30 min after i.v. injection): 15.66 ± 1.88 % ID/g tissue | Kidneys, mean % ID/g tissue ± SD ([1]; 4 h after i.v. injection): 13.47 ± 1.79 % ID/g tissue | Kidneys, mean % ID/g tissue ± SD ([1]; 24 h after i.v. injection): 11.19 ± 1.35 % ID/g tissue | Liver, mean % ID/g tissue ± SD ([1]; 30 min after i.v. injection): 5.75 ± 0.86 % ID/g tissue | Liver, mean % ID/g tissue ± SD ([1]; 4 h after i.v. injection): 2.98 ± 0.45 % ID/g tissue | Liver, mean % ID/g tissue ± SD ([1]; 24 h after i.v. injection): 0.92 ± 0.90 % ID/g tissue | Lungs, mean % ID/g tissue ± SD ([1]; 30 min after i.v. injection): 2.81 ± 0.51 % ID/g tissue | Lungs, mean % ID/g tissue ± SD ([1]; 4 h after i.v. injection): 1.09 ± 0.26 % ID/g tissue | Lungs, mean % ID/g tissue ± SD ([1]; 24 h after i.v. injection): 0.29 ± 0.10 % ID/g tissue | Muscle, mean % ID/g tissue ± SD ([1]; 30 min after i.v. injection): 0.38 ± 0.03 % ID/g tissue | Muscle, mean % ID/g tissue ± SD ([1]; 4 h after i.v. injection): 0.09 ± 0.01 % ID/g tissue | Muscle, mean % ID/g tissue ± SD ([1]; 24 h after i.v. injection): 0.03 ± 0.01 % ID/g tissue | Spleen, mean % ID/g tissue ± SD ([1]; 30 min after i.v. injection): 1.48 ± 0.18 % ID/g tissue | Spleen, mean % ID/g tissue ± SD ([1]; 4 h after i.v. injection): 0.60 ± 0.07 % ID/g tissue | Spleen, mean % ID/g tissue ± SD ([1]; 24 h after i.v. injection): 0.22 ± 0.03 % ID/g tissue | Stomach, mean % ID/g tissue ± SD ([1]; 30 min after i.v. injection): 1.73 ± 0.30 % ID/g tissue | Stomach, mean % ID/g tissue ± SD ([1]; 4 h after i.v. injection): 0.49 ± 0.23 % ID/g tissue | Stomach, mean % ID/g tissue ± SD ([1]; 24 h after i.v. injection): 0.44 ± 0.14 % ID/g tissue | Maximum % IDTCF/ml in cage fluid, cages infected with S. aureus ([2]; 30 min p.i., i.v., cage fluid): 2.06 ± 0.79% | Cage fluid/blood ratio, mice infected with S. aureus ([2]; 24 h p.i.): 13.48 ± 2.75 | Cage—S. aureus, mean % ID/g tissue ± SD ([2]; 30 min after i.v. injection): 1.80 ± 0.91 % ID/g tissue | Cage—S. aureus, mean % ID/g tissue ± SD ([2]; 4 h after i.v. injection): 1.47 ± 0.38 % ID/g tissue | Cage—S. aureus, mean % ID/g tissue ± SD ([2]; 24 h after i.v. injection): 0.14 ± 0.06 % ID/g tissue | Maximum % IDTCF/ml in cage fluid, cages infected with E. coli ([3]; 30 min p.i., i.v., cage fluid): 1.33 ± 0.26% | Cage fluid/blood ratio, mice infected with E. coli ([3]; 24 h p.i.): 6.31 ± 2.92 | % ID/g in explanted E. coli-infected cages relative to sterile cages ([3]; 24 h p.i., explanted cages, higher than sterile): ~10 fold | Cage—E. coli, mean % ID/g tissue ± SD ([3]; 30 min after i.v. injection): 0.76 ± 0.21 % ID/g tissue | Cage—E. coli, mean % ID/g tissue ± SD ([3]; 4 h after i.v. injection): 0.84 ± 0.23 % ID/g tissue | Cage—E. coli, mean % ID/g tissue ± SD ([3]; 24 h after i.v. injection): 0.37 ± 0.18 % ID/g tissue | Maximum % IDTCF/ml in cage fluid, sterile cages ([4]; 30 min p.i., i.v., cage fluid): 2.3 ± 0.39% | Cage—sterile, mean % ID/g tissue ± SD ([4]; 30 min after i.v. injection): 2.37 ± 0.16 % ID/g tissue | Cage—sterile, mean % ID/g tissue ± SD ([4]; 4 h after i.v. injection): 0.87 ± 0.25 % ID/g tissue | Cage—sterile, mean % ID/g tissue ± SD ([4]; 24 h after i.v. injection): 0.04 ± 0.01 % ID/g tissue
